Reference: BindingDB's records for doi:10.1021/ml300405d (Therachem Research Medilab (India), 2013)

Target: Tyrosine-protein kinase SYK (Homo sapiens) (UniProt P43405)
Assay: Inhibition of human Gst-tagged Syk expressed in sf9 cells

Row | IC50 [nM] | SMILES
1 | 79 | COc1ccc(Nc2nc(-c3cccc(CO)c3)nc3scnc23)cc1OC
2 | 65 | COc1ccc(Nc2nc(N3CCCC(C(=O)Nc4ccc(C(=O)O)nc4)C3)nc3scnc23)cc1OC (stereo not drawn)
3 | 19900 | COc1ccc(Nc2nc(N3CCCC(C(=O)NCCc4ccncc4)C3)nc3scnc23)cc1OC (stereo not drawn)
